Biological target: Type-1 angiotensin II receptor (Oryctolagus cuniculus) (UniProt P34976)
Experiment: Antagonist activity at angiotensin 2 type-1 receptor in Oryctolagus cuniculus (rabbit) aorta in presence of bovine serum albumin
Set-up: unit not given here

Protein sequences, listed by entry. Tags and fused reporters are not part of them.
UniProt P34976, whole entry: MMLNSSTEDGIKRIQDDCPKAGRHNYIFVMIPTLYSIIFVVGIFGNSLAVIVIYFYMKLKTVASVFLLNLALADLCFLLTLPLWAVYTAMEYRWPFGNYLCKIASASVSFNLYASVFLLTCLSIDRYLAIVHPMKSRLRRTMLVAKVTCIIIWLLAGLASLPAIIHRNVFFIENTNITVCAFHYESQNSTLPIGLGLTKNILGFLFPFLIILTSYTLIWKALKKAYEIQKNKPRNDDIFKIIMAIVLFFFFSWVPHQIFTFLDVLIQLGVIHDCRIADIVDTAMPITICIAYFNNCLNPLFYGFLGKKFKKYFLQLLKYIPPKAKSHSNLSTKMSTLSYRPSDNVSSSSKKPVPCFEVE

logIC50: 1.34
Structure (SMILES): CCCCc1nn(-c2ccccc2)c(=O)n1Cc1ccc(-c2ccccc2-c2nn[nH]n2)cc1

Source: ChEMBL document CHEMBL3046459, “Structural insights for 3H-1, -2, -4 triazolinones as angiotensin II receptor antagonists using QSAR techniques” (Med Chem Res, 2010)
